Assay results from USRE50230E1, “Method of treatment of hypoxia inducible factor (HIF)-related conditions” (GRIFOLS WORLDWIDE OPERATIONS LIMITED, priority 2014, dated 2024).

Test system: HIF1alpha protein
Test: HIF1alpha protein levels by ELISA in SH-SY5Y cells
Type: cell-based, human
Details: negative control, 1 mg/mL or 4 mg/mL
Procedure: Human neuroblastoma SH-SY5Y cell line cells, cultured in serum free media were treated with plasma derived ApoTf and HoloTf (in both cases at a concentration of 1 mg/mL and 4 mg/mL) for 6 hours under normoxia (21% oxygen) and hypoxia conditions (1% oxygen). As controls, untreated cells or cells treated with human serum albumin (HSA) at a concentration of 1 mg/mL or 4 mg/mL, are used. After 6 hrs intracellular proteins were harvested and tested for HIF1alpha protein levels by ELISA.
Experiment performed in example 1 was repeated but performing treatments for 24 hours and only under normoxic conditions. After 24 hrs intracellular proteins were harvested and tested for HIF1 alpha protein levels by ELISA.
After 6 hrs, intracellular proteins were harvested and tested for HIF1 alpha protein levels by ELISA. […] As also can be seen in said figure, all mixtures of ApoTf and HoloTf upregulate HIF1alpha protein in SH-SY5Y neuronal cells.
Transferrin may act synergistically with other HIF activating small molecules, such as other iron chelators or enzyme inhibitors. This could allow lower levels of these small molecules to be administered, eliciting fewer side effects but retaining high therapeutic levels. […]

## human serum albumin: human serum albumin used as negative control protein [reference compound]
  HIF1-α levels: no effect
